Target: Hsp27 (full length) (UniProt P04792)
Experiment: BLI; biotinylated Hsp (25 μg/mL) loaded on streptavidin biosensors, α-syn monomer in solution at different concentrations; Octet RED96, 30°C, 50 mM Tris–HCl, 150 mM NaCl, pH 7.0; association 3 min, dissociation 8 min

## α-Synuclein (from UniProt P37840 1-140) (natural protein; other documents disagree on this pair)
  Kd: 200 µM

From PMC6842937
